According to patent publication US5554631A, “5-pyrrolyl-6-halogeno-2-pyridylmethylsulfinyl benzimidazole derivatives” (Il-Yang Pharm. Co., Ltd., priority 1994, dated 1996):

Tested on: ICR (male, female) mouse
Details: oral, 987 mg/kg, 14 days
Experimental: Five weeks aged ICR (male, female) mouse were pre-bred in the breeding cage for one week and then the animals showing a smooth gain in body weight were randomly selected and used in this test. The amount to be administered to the test animals was established on the basis of the maximum dose of 5,000 mg/kg with the common ratio of 1.5.
The test compounds in a powder were suspended in 0.5% methylcellulose and administered per oral using a lml syringe. The other specific conditions for administration are described in the following.
In the above test, the control group received only 0.5% methylcellulose.
(1) Clinical symptoms and death of test animals
The clinical symptoms and death of test animals caused by the test compounds were recorded immediately after administration of the test compounds and during the overall test period.

## COc1ccc2[nH]c([S+]([O-])Cc3ncc(C)c(OC)c3C)nc2c1 (stereo not shown) [Omeprazole, 5-methoxy-2-[[(4-methoxy-3,5-dimethyl-2-pyridinyl)methyl]sulfinyl]-1H-benzimidazole]
  Lethality: 0/5
